Literature values in paper PMC11667226 (Theranostics, 2025).

Columns and labels:
EGFR [1] = settings: 65 patients with OSCC, ref De Wit et al. [39], cited from earlier work
Source text: From the clinical studies of the antibody-based agents (i.e., cetuximab-800CW, panitumumab-IRDye800) targeting EGFR in head and neck cancers, a major focus has been on margin assessment in closed-field imaging systems on the back-table or during the pathological processing postoperatively. […] Van Keulen et al. reported a 95% sensitiv ...

EGFR [2] = settings: 12 HNSCC patients, closed-imaging device; ref [43]; cited from earlier work
Source text: In HNSCC, the presence of neck metastasis is the single most important prognostic factor for outcome, and the intended complete removal of regional metastatic disease by neck dissection is a key element of treatment.

cetuximab-800CW: antibody-based optical imaging agent targeting EGFR
Sensitivity for detection of close margins (<5mm) (EGFR [1]; threshold SBR 1.5): 70.3%
Specificity for detection of close margins (<5mm) (EGFR [1]; threshold SBR 1.5): 76.1%
Sensitivity for detection of positive margins (EGFR [1]; threshold SBR 2): 100%
Specificity for detection of positive margins (EGFR [1]; threshold SBR 2): 85.9%
Sensitivity for detection of metastasis (EGFR [2]): 97.2%
